## Water solubility values, as collected for the OPERA models

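OPERA's authors assembled the values from existing databases and did not measure them anew. The files give a single number for a compound and property, which may rest on several reports. Conditions of the individual experiments are not part of the data. The measured form (salt, isomer or mixture) is not always the one drawn. Some entries may be limits or estimates that an upstream database listed as plain numbers.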

Solubility in water is on a log10 molar scale (set defined at 25 °C).

Listed for O=C1c2ccc3c4ccc5c6c(ccc(c7ccc(c2c37)C(=O)N1c1ccc(Cl)cc1)c64)C(=O)N(c1ccc(Cl)cc1)C5=O [C.I. Pigment Red 189]: log S -5.61 (log10 mol/L).
Listed for CC(C)C(SC(C(=O)O)C(C)C)C(=O)O (stereo not given) [meso-2,2'-Thiobis(3-methyl-butyric acid)]: log S -1.757 (log10 mol/L).
Listed for O=C(O)CSC(c1ccccc1)(c1ccccc1)c1ccccc1 [2-(tritylthio)acetic acid]: log S -4.302 (log10 mol/L).
Listed for COC(=O)C1=C(C)NC(C)=C(C(=O)OCC(C)C)C1c1ccccc1[N+](=O)[O-] (stereo not given) [Nisoldipine]: log S -4.828 (log10 mol/L).
Listed for CO/N=C(\C(=O)N[C@H]1C(=O)N2C(C(=O)O)=C(COC(N)=O)CS[C@@H]12)c1ccco1 [Cefuroxime]: log S -3.32 (log10 mol/L).
Listed for CCCC/C=C/CCCCOC(C)=O [(E)-5-Decen-1-ol acetate]: log S -4.561 (log10 mol/L).
Listed for Nc1ccc(C(=O)NCC(=O)O)cc1 [Aminohippuric acid]: log S -1.174 (log10 mol/L).
Listed for O=C(O)CNCC(=O)O [Iminodiacetic acid]: log S -0.739 (log10 mol/L).
Listed for N=C1C=CC(=Nc2ccccc2)C=C1 [N-Phenyl-2,5-cyclohexadiene-1,4-diimine]: log S -1.738 (log10 mol/L).
Listed for O=S(=O)(O)c1cc(Nc2nc(Nc3ccccc3)nc(N(CCO)CCO)n2)ccc1C=Cc1ccc(Nc2nc(Nc3ccccc3)nc(N(CCO)CCO)n2)cc1S(=O)(=O)O [C.I. Fluorescent brightening agent 28]: log S -1.059 (log10 mol/L).
Listed for NC1=CC(=O)C(=O)c2ccccc21 [4-Amino-1,2-naphthoquinone]: log S -3.839 (log10 mol/L).
Listed for CCN(CC)c1ccc(C(O)(c2ccc(N(CC)CC)cc2)c2ccc(N(CC)CC)cc2)cc1: log S -8.047 (log10 mol/L).
Listed for CC(C)c1cccc(C(C)C)c1N=C=Nc1c(C(C)C)cccc1C(C)C [Bis(2,6-diisopropylphenyl)carbodiimide]: log S -6.86 (log10 mol/L).
Listed for O=[N+]([O-])c1ccc(N=Nc2ccc(N(CCO)CCO)cc2)c([N+](=O)[O-])c1: log S -5.222 (log10 mol/L).
Listed for COc1ccc(NC(N)=O)cc1Cl [Urea, (3-chloro-4-methoxyphenyl)-]: log S -1.83 (log10 mol/L).
Listed for Ic1[nH]c(I)c(I)c1I [Iodol [USP]]: log S -3.46 (log10 mol/L).
Listed for CCCOC(=O)Nc1ccccc1 [Propyl N-phenylcarbamate]: log S -2.9 (log10 mol/L).
Listed for CC(=O)O.CC1CN(C2CCCCCCCCCCC2)CC(C)O1 (stereo not given) [Dodemorph acetate]: log S -2.66 (log10 mol/L).
Listed for O=S(=O)(O)c1cc(S(=O)(=O)O)c2c(N=Nc3cccc4ccccc34)c(O)ccc2c1: log S -0.339 (log10 mol/L).
Listed for CC(CC(=O)OCC(COC(=O)CC(C)CC(C)(C)C)OC(=O)CC(C)CC(C)(C)C)CC(C)(C)C (stereo not given) [Propane-1,2,3-triyl tris(3,5,5-trimethylhexanoate)]: log S -7.011 (log10 mol/L).
Listed for N=C(N)NCC(=O)O: log S -1.51 (log10 mol/L).
Listed for CCC(C)c1cc([N+](=O)[O-])cc([N+](=O)[O-])c1OC(=O)OC(C)C (stereo not given) [Dinobuton]: log S -4.91 (log10 mol/L).
Listed for Cc1cc(O)ccc1Br [4-Bromo-m-cresol]: log S -2.041 (log10 mol/L).
Listed for Clc1ccc(Cl)c(Oc2ccc(Cl)c(Cl)c2)c1: log S -7.07 (log10 mol/L).
Listed for CCCCCCCCCCCCc1ccc(N=Nc2ccc(O)c(N=Nc3ccc(CCCCCCCCCCCC)cc3)c2O)cc1 [2,4-Bis[(4-dodecylphenyl)azo]resorcinol]: log S -8.436 (log10 mol/L).
Listed for CN(C)CCC(c1ccccc1)c1ccccn1 (stereo not given) [Pheniramine]: log S -2.804 (log10 mol/L).
Listed for CCN(CC)S(=O)(=O)c1ccc(OC)c(N=Nc2c(O)c(C(=O)Nc3cc(Cl)c(OC)cc3OC)cc3ccccc23)c1 [C.I. Pigment Red 5]: log S -7.905 (log10 mol/L).
Listed for O=C1CCC(C(=O)Nc2ccccc2)N1 (stereo not given) [5-Oxo-N-phenylpyrrolidine-2-carboxamide]: log S -1.328 (log10 mol/L).
Listed for O=CC(N=C(O)OCc1ccccc1)C(O)C(O)C(O)CO (stereo not given): log S -1.74 (log10 mol/L).
Listed for CC(=O)c1cccc(O)c1 [Ethanone, 1-(3-hydroxyphenyl)-]: log S -1.534 (log10 mol/L).
Listed for OC(CCl)CCl [1,3-Dichloro-2-propanol]: log S -0.11 (log10 mol/L).
Listed for O=P(O)(O)O[P@@](=O)(O)O[P@@](=O)(O)OC[C@H]1O[C@@H](n2cnc3c(O)ncnc32)[C@H](O)[C@@H]1O [Inosine triphosphate]: log S 0.25 (log10 mol/L).
Listed for Cc1ccc(/N=N/c2c(O)c(C(=O)[O-])cc3ccccc23)c(S(=O)(=O)[O-])c1.[Ba+2]: log S -5.735 (log10 mol/L).
Listed for c1ncc2cn[nH]c2n1 [Pyrazolo(3,4-d)pyrimidine]: log S -1.381 (log10 mol/L).
Listed for CC(C)=NNC(=O)Nc1ccc([N+](=O)[O-])cc1 [Acetone, 4-(p-nitrophenyl)semicarbazone]: log S -3.595 (log10 mol/L).
Listed for O=C1Cc2cccc(F)c2N1 [7-Fluorooxindole]: log S -2.225 (log10 mol/L).
Listed for CCC(O)(CC)C(=O)O [2-Ethyl-2-hydroxybutyric acid]: log S -0.706 (log10 mol/L).
Listed for COC(=O)C1C2C=CC(C2)C1C(=O)OC (stereo not given) [Dimethyl bicyclo[2.2.1]hept-5-ene-2,3-dicarboxylate]: log S -1.2 (log10 mol/L).
Listed for CCCOC(=O)CCOCC [Propanoic acid, 3-ethoxy-, propyl ester]: log S -4.02 (log10 mol/L).
Listed for CC1(C)OC[C@@H]2O[C@@]3(C(=O)O)OC(C)(C)O[C@H]3[C@@H]2O1 [Dikegulac]: log S -1.14 (log10 mol/L).
Listed for COc1cc(/N=N/c2cc(S(=O)(=O)[O-])cc3cc(S(=O)(=O)[O-])cc(O)c23)c(C)cc1NC(=O)Nc1cc(C)c(/N=N/c2cc(S(=O)(=O)[O-])cc3cc(S(=O)(=O)[O-])cc(O)c23)cc1OC.[Na+].[Na+].[Na+].[Na+] [Chlorantine Fast Red 6BLL]: log S -2.69 (log10 mol/L).
Listed for Cc1cc(N(CCO)CCO)ccc1N=Nc1ccc([N+](=O)[O-])cc1 [Disperse Red 17]: log S -5.66 (log10 mol/L).
Listed for O=C(O)CCCCC(C(=O)O)(c1ccccc1)c1ccccc1 [2,2-Diphenylheptanedioic acid]: log S -3.43 (log10 mol/L).
Listed for CC(C)(O)C(=O)OCCc1ccccc1 [Isobutyric acid, alpha-hydroxy-, 2-phenylethyl ester]: log S -1.62 (log10 mol/L).
Listed for Cc1c(I)c(=O)n(-c2ccccc2)n1C [Iodoantipyrine]: log S -2.594 (log10 mol/L).
Listed for COc1cc([C@@H]2c3cc4c(cc3[C@@H](O[C@@H]3O[C@@H]5CO[C@@H](c6cccs6)O[C@H]5[C@H](O)[C@H]3O)[C@H]3COC(=O)[C@H]23)OCO4)cc(OC)c1O [Teniposide]: log S -4.041 (log10 mol/L).
Listed for Cl.NNc1nncc2ccccc12 [Hydralazine hydrochloride]: log S -0.648 (log10 mol/L).
Listed for CC(C)OC(=O)CCC/C=C\C[C@@H]1[C@@H](/C=C/C(F)(F)COc2ccccc2)[C@H](O)C[C@@H]1O [Tafluprost]: log S -4.933 (log10 mol/L).
Listed for CC1(C)OCC([C@H]2O[C@@H]3OC(C)(C)O[C@@H]3[C@H]2O)O1 (stereo partly drawn) [.alpha.-D-Glucofuranose, 1,2:5,6-bis-O-(1-methylethylidene)-]: log S -0.785 (log10 mol/L).

Source: data files of OPERA 2.9 (Mansouri et al.), github.com/kmansouri/OPERA.